According to PubChem BioAssay (NCI):
This is a selection; strong and weak results do not stand in their true shares. Where a structure was tested more than once in an assay, its records may differ in their call. Activity calls are given as the source filed them. No stated cut-off is given here; in the data, active means growth inhibition above about 70%; inactive means the rest.

Key:
[1] = NCI Yeast Anticancer Drug Screen. Data for the rad50 strain (AID 155);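 further: 0% = growth of vehicle-only cultures of the same strain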; conditions: S. cerevisiae rad50 strain growth inhibition, hits give high values
[2] = NCI Yeast Anticancer Drug Screen. Data for the mec2-1 strain (AID 157); conditions: S. cerevisiae mec2-1 strain, hits give high values
[3] = NCI Yeast Anticancer Drug Screen. Data for the sgs1 mgt1 strain (AID 161);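 further: 0% = growth of cultures given vehicle only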; conditions: S. cerevisiae sgs1 mgt1 strain, hits give high values
[4] = NCI Yeast Anticancer Drug Screen. Data for the cln2 rad14 strain (AID 165);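 further: 0% = growth equal to vehicle treated cultures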; conditions: S. cerevisiae cln2 rad14 strain, hits give high values
[5] = NCI Yeast Anticancer Drug Screen. Data for the bub3 strain (AID 167); conditions: S. cerevisiae bub3 mutant strain, hits give high values
[6] = NCI Yeast Anticancer Drug Screen. Data for the mlh1 rad18 strain (AID 175); conditions: S. cerevisiae mlh1 rad18 strain growth inhibition, hits give high values
[7] = at 5.0 µM (retest, dose inferred, filed as 0.5)
[8] = at 50.0 µM (retest, dose inferred, filed as 5.0)

Measured: growth inhibition

COc1ccc(C[N+](C)(CCCl)CCCl)c([N+](=O)[O-])c1
inactive: [1]; at 1.2 µM 20% | [1]; at 3.7 µM 25% | [1]; [7] -22% | [1]; at 11.0 µM 40% | [1]; at 33.0 µM 58% | [1]; [8] 64% | [1]; at 100.0 µM 65% | [2]; at 1.2 µM 7% | [2]; at 3.7 µM 10% | [2]; [7] -22% | [2]; at 11.0 µM 18% | [2]; at 33.0 µM 22% | [2]; [8] 19% | [2]; at 50.0 µM 42.5% | [2]; at 100.0 µM 26% | [3]; [7] -27% | [3]; [8] 8% | [3]; at 50.0 µM 42.9% | [4]; [7] 2% | [4]; [8] 32% | [4]; at 50.0 µM 65% | [5]; at 1.2 µM -2% | [5]; at 3.7 µM 3% | [5]; [7] -32% | [5]; at 11.0 µM 8% | [5]; at 33.0 µM 6% | [5]; [8] -18% | [5]; at 50.0 µM -9% | [5]; at 100.0 µM 3% | [6]; [7] 2% | [6]; at 50.0 µM 67.9%
active: [1]; at 50.0 µM 73.5% | [6]; [8] 81%

O=Cc1ccc(N(CCCl)CCCl)cc1
inactive: [1]; [7] 13% | [1]; [8] 47% | [2]; [7] 5% | [2]; [8] 18% | [2]; at 50.0 µM 47.8% | [3]; [7] 7% | [3]; [8] 28% | [3]; at 50.0 µM 37.1% | [4]; [7] 3% | [4]; [8] 54% | [5]; [7] 3% | [5]; [8] 3% | [5]; at 50.0 µM 18.2% | [6]; [7] 15% | [6]; [8] 57% | [6]; at 50.0 µM 48.2%
active: [1]; at 50.0 µM 81% | [4]; at 50.0 µM 81.2%

O=P(Cl)(Cl)N(CCF)CCCl
inactive: [1]; at 50.0 µM -8.5% | [2]; at 50.0 µM -9.9% | [3]; at 50.0 µM -11.7% | [4]; at 50.0 µM -17.1% | [5]; at 50.0 µM -7.15% | [6]; at 50.0 µM -15%

ClCCN(CCCl)c1ccccc1
inactive: [1]; at 50.0 µM 17.1% | [2]; at 50.0 µM -2.1% | [3]; at 50.0 µM 7.9% | [4]; at 50.0 µM -8.1% | [5]; at 50.0 µM 6.1% | [6]; at 50.0 µM 9.7%

Cc1ccc([N+](=O)[O-])c(C[N+](C)(CCCl)CCCl)c1
active: [1]; at 11.0 µM 86% | [1]; at 33.0 µM 95% | [1]; [8] 87% | [1]; at 50.0 µM 85.4% | [1]; at 100.0 µM 96% | [2]; at 33.0 µM 88% | [2]; [8] 90% | [2]; at 50.0 µM 86.7% | [2]; at 100.0 µM 95% | [3]; at 50.0 µM 74.6% | [4]; [8] 88% | [4]; at 50.0 µM 78.6% | [5]; at 100.0 µM 87% | [6]; [8] 93% | [6]; at 50.0 µM 87.6%
inactive: [1]; at 1.2 µM 6% | [1]; at 3.7 µM 43% | [1]; [7] 17% | [2]; at 1.2 µM -16% | [2]; at 3.7 µM 7% | [2]; [7] 2% | [2]; at 11.0 µM 31% | [3]; [7] 32% | [3]; [8] 61% | [4]; [7] 34% | [5]; at 1.2 µM -8% | [5]; at 3.7 µM -8% | [5]; [7] 0% | [5]; at 11.0 µM -10% | [5]; at 33.0 µM 17% | [5]; [8] 62% | [5]; at 50.0 µM 29% | [6]; [7] 50%

COc1ccc([N+](=O)[O-])c(C[N+](C)(CCCl)CCCl)c1
active: [1]; at 33.0 µM 73% | [1]; at 50.0 µM 73.6% | [1]; at 100.0 µM 92% | [2]; at 100.0 µM 78% | [6]; [8] 71%
inactive: [1]; at 1.2 µM -20% | [1]; at 3.7 µM -13% | [1]; [7] 15% | [1]; at 11.0 µM 8% | [1]; [8] 62% | [2]; at 1.2 µM -7% | [2]; at 3.7 µM 5% | [2]; [7] -14% | [2]; at 11.0 µM 4% | [2]; at 33.0 µM 22% | [2]; [8] 19% | [2]; at 50.0 µM 21.9% | [3]; [7] -1% | [3]; [8] 10% | [3]; at 50.0 µM 31.6% | [4]; [7] -3% | [4]; [8] 47% | [4]; at 50.0 µM 38.9% | [5]; at 1.2 µM -33% | [5]; at 3.7 µM -47% | [5]; [7] -5% | [5]; at 11.0 µM -35% | [5]; at 33.0 µM -37% | [5]; [8] -8% | [5]; at 50.0 µM -3.6% | [5]; at 100.0 µM -6% | [6]; [7] 14% | [6]; at 50.0 µM 67.7%

NCCN(CCCl)CCCl
inactive: [1]; at 50.0 µM -10.8% | [2]; at 50.0 µM -28.6% | [3]; at 50.0 µM -31.7% | [4]; at 50.0 µM 2.15% | [5]; at 50.0 µM -32.8% | [6]; at 50.0 µM 28.4%

Cc1[nH]c(=S)[nH]c(=O)c1CN(CCCl)CCCl
inactive: [1]; [7] -1% | [1]; [8] -2% | [1]; at 50.0 µM 13% | [2]; [7] -1% | [2]; [8] -3% | [2]; at 50.0 µM -6.5% | [3]; [7] -6% | [3]; [8] -4% | [3]; at 50.0 µM 21.3% | [4]; [7] -4% | [4]; [8] 2% | [4]; at 50.0 µM -49.5% | [5]; [7] -1% | [5]; [8] -4% | [5]; at 50.0 µM 43.5% | [6]; [7] 0% | [6]; [8] -4% | [6]; at 50.0 µM 3.5%
